Target: T1, full-length B-Catenin (Uniprot ID P35222) (Homo sapiens, UniProt P35222)
T1 construct: 10 nM full-length B-Catenin (Uniprot ID P35222)
Type: binding
Conditions: competition fluorescence polarization; read-out: beta-Catenin FP IC50

Chains of the proteins cited; added tags and fusions are not shown.
UniProt P35222, whole entry: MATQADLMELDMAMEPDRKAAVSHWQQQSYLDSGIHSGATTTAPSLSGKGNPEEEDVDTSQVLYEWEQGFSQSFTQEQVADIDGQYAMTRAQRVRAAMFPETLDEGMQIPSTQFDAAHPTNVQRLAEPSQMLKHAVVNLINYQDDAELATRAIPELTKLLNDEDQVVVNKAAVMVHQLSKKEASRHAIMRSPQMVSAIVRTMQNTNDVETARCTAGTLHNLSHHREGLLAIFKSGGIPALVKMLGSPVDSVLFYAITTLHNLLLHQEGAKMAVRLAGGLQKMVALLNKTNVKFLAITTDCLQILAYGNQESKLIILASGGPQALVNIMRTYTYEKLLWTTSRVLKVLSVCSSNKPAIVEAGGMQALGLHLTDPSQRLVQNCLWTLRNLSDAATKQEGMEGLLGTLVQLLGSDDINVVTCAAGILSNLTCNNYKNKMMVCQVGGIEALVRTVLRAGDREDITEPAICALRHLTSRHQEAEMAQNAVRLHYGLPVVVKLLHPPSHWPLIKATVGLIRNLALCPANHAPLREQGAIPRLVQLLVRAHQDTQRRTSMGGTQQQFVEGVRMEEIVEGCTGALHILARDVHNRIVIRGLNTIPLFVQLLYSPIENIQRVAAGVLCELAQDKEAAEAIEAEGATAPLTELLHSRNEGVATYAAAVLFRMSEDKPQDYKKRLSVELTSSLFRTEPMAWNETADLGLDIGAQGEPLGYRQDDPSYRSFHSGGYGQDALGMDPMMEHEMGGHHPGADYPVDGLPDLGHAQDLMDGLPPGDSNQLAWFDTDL

| Substance | IC50 [nM] |
| --- | --- |
| Ac-PL3-Asp-Npg-B5-Asp-3COOHF-Aib-Ala-Phe-Lys*3-PyrS2-3Thi-BztA-GlnR*3-Val-Ala-NH2 [I-403] | < 50 |
| Ac-PL3-Asp-Npg-B5-Asp-3COOHF-Aib-Ala-Phe-Lys*3-PyrS2-3Thi-BztA-GlnR*3-Val-Ser-Ala-NH2 [I-1478] | < 50 |
| Ac-PL3-Asp-Npg-B5-Asp-3COOHF-Aib-Ala-Phe-Lys*3-PyrS2-3Thi-BztA-GlnR*3-Val-Ser-Leu-NH2 [I-1479] | < 50 |
| Ac-PL3-Asp-Npg-B5-Asp-3COOHF-Aib-Ala-Phe-Lys*3-PyrS2-3Thi-BztA-GlnR*3-Val-Ser-Leu-Pro-NH2 [I-1480] | < 50 |
| Ac-PL3-Asp-Npg-B5-Asp-3COOHF-Aib-Ala-Phe-Lys*3-PyrS2-3Thi-BztA-GlnR*3-Val-Ser-Pro-NH2 [I-1483] | < 50 |
| Ac-PL3-Asp-Npg-B5-Asp-3COOHF-Aib-Ala-Phe-Lys*3-PyrS2-3Thi-BztA-GlnR*3-Val-Ser-Thr-NH2 [I-1481] | < 50 |
| Ac-PL3-Asp-Npg-B5-Asp-3COOHF-Aib-Ala-Phe-Lys*3-PyrS2-3Thi-BztA-GlnR*3-Val-Ser-Thr-Pro-NH2 [I-1482] | < 50 |
| Ac-PL3-Asp-Npg-B5-Asp-3COOHF-Aib-Ala-Phe-Lys*3-PyrS2-3Thi-BztA-GlnR*3-Val-Thr-[mPEG8]-Lys-NH2 [I-1818] | < 50 |
| Ac-PL3-Asp-Npg-B5-Asp-3COOHF-Aib-Ala-Phe-Lys*3-PyrS2-3Thi-BztA-GlnR*3-[mPEG4]Lys-NH2 [I-1181] | < 50 |
| Ac-PL3-Asp-Npg-B5-Asp-3COOHF-Aib-Ala-Phe-Lys*3-PyrS2-3Thi-BztA-GlnR*3-[mPEG8]Lys-NH2 [I-1182] | < 50 |
| Ac-PL3-Asp-Npg-B5-Asp-3COOHF-Aib-Ala-Phe-Lys*3-PyrS2-3Thi-BztA-GlnR*3-[mPEG16]Lys-NH2 [I-1183] | < 50 |
| Ac-PL3-Asp-Npg-B5-Asp-3COOHF-Aib-Ala-Phe-Lys*3-PyrS2-3Thi-BztA-GlnR*3-dAla-NH2 [I-459] | < 50 |
| Ac-PL3-Asp-Npg-B5-Asp-3COOHF-Aib-Ala-Phe-Lys*3-PyrS2-Ala-BztA-GlnR*3-Ala-NH2 [I-267] | 200 to 750 |
| Ac-PL3-Asp-Npg-B5-Asp-3COOHF-Aib-Ala-Phe-Lys*3-PyrS2-CypA-2NapA-GlnR*3-Ala-NH2 [I-492] | 50 to 200 |
| Ac-PL3-Asp-Npg-B5-Asp-3COOHF-Aib-Ala-Phe-Lys*3-PyrS2-DipA-34ClF-GlnR*3-NH2 [I-1532] | 50 to 200 |
| Ac-PL3-Asp-Npg-B5-Asp-3COOHF-Aib-Ala-Phe-Lys*3-PyrS2-DipA-34ClF-GlnR*3-NH2 [I-1533] | 200 to 750 |
| Ac-PL3-Asp-Npg-B5-Asp-3COOHF-Aib-Ala-Phe-Lys*3-PyrS2-DipA-BztA-GlnR*3-NH2 [I-1536] | 50 to 200 |
| Ac-PL3-Asp-Npg-B5-Asp-3COOHF-Aib-Ala-Phe-Lys*3-PyrS2-HepG-34ClF-GlnR*3-Ala-NH2 [I-943] | 50 to 200 |
| Ac-PL3-Asp-Npg-B5-Asp-3COOHF-Aib-Ala-Phe-Lys*3-PyrS2-HepG-BztA-GlnR*3-Ala-NH2 [I-938] | 50 to 200 |
| Ac-PL3-Asp-Npg-B5-Asp-3COOHF-Aib-Ala-Phe-Lys*3-PyrS2-HepG-BztA-GlnR*3-Ala-NH2 [I-939] | 200 to 750 |
| Ac-PL3-Asp-Npg-B5-Asp-3COOHF-Aib-Ala-Phe-Lys*3-PyrS2-Phe-7ClBztA-GlnR*3-Ala-NH2 [I-1249] | < 50 |

| Substance | IC50 [nM] |
| --- | --- |
| Ac-PL3-Asp-Npg-B5-Asp-3COOHF-Aib-Ala-Phe-Lys*3-PyrS2-Phe-7ClBztA-GlnR*3-NH2 [I-1248] | < 50 |
| Ac-PL3-Asp-Npg-B5-Asp-3COOHF-Aib-Ala-Phe-Lys*3-PyrS2-Phe-7FBztA-GlnR*3-Ala-NH2 [I-1247] | < 50 |
| Ac-PL3-Asp-Npg-B5-Asp-3COOHF-Aib-Ala-Phe-Lys*3-PyrS2-Phe-7FBztA-GlnR*3-NH2 [I-1245] | < 50 |
| Ac-PL3-Asp-Npg-B5-Asp-3COOHF-Aib-Ala-Phe-Lys*3-PyrS2-Phe-7MeBztA-GlnR*3-Ala-NH2 [I-1251] | < 50 |
| Ac-PL3-Asp-Npg-B5-Asp-3COOHF-Aib-Ala-Phe-Lys*3-PyrS2-Phe-7MeBztA-GlnR*3-NH2 [I-1250] | < 50 |
| Ac-PL3-Asp-Npg-B5-Asp-3COOHF-Aib-Ala-Phe-Lys*3-PyrS2-Phe-34MeF-GlnR*3-NH2 [I-1103] | < 50 |
| Ac-PL3-Asp-Npg-B5-Asp-3COOHF-Aib-Ala-Phe-Lys*3-PyrS2-Phe-BztA-GlnR*3-NH2 [I-1242] | < 50 |
| Ac-PL3-Asp-Npg-B5-Asp-3COOHF-Aib-Ala-Phe-Lys*3-PyrS2-[2IAPAc]2NH2F-BztA-GlnR*3-Ala-NH2 [I-1668] | < 50 |
| Ac-PL3-Asp-Npg-B5-Asp-3COOHF-Aib-Ala-Phe-Lys*3-PyrS2-[2PyAc]2NH2F-BztA-GlnR*3-Ala-NH2 [I-1740] | < 50 |
| Ac-PL3-Asp-Npg-B5-Asp-3COOHF-Aib-Ala-Phe-Lys*3-PyrS2-[2PyCypCO]2NH2F-BztA-GlnR*3-Ala-NH2 [I-1672] | < 50 |
| Ac-PL3-Asp-Npg-B5-Asp-3COOHF-Aib-Ala-Phe-Lys*3-PyrS2-[2PyPrpc]2NH2F-BztA-GlnR*3-Ala-NH2 [I-1741] | < 50 |
| Ac-PL3-Asp-Npg-B5-Asp-3COOHF-Aib-Ala-Phe-Lys*3-PyrS2-[2PyzCO]2NH2F-BztA-GlnR*3-Ala-NH2 [I-1755] | < 50 |
| Ac-PL3-Asp-Npg-B5-Asp-3COOHF-Aib-Ala-Phe-Lys*3-PyrS2-[3FPyr2c]2NH2F-BztA-GlnR*3-Ala-NH2 [I-1763] | 50 to 200 |
| Ac-PL3-Asp-Npg-B5-Asp-3COOHF-Aib-Ala-Phe-Lys*3-PyrS2-[3IAPAc]2NH2F-BztA-GlnR*3-Ala-NH2 [I-1751] | < 50 |
| Ac-PL3-Asp-Npg-B5-Asp-3COOHF-Aib-Ala-Phe-Lys*3-PyrS2-[3PyAc]2NH2F-BztA-GlnR*3-Ala-NH2 [I-1671] | 200 to 750 |
| Ac-PL3-Asp-Npg-B5-Asp-3COOHF-Aib-Ala-Phe-Lys*3-PyrS2-[3PyPrpc]2NH2F-BztA-GlnR*3-Ala-NH2 [I-1742] | < 50 |
| Ac-PL3-Asp-Npg-B5-Asp-3COOHF-Aib-Ala-Phe-Lys*3-PyrS2-[4FPyr3c]2NH2F-BztA-GlnR*3-Ala-NH2 [I-1764] | < 50 |
| Ac-PL3-Asp-Npg-B5-Asp-3COOHF-Aib-Ala-Phe-Lys*3-PyrS2-[4PyPrpc]2NH2F-BztA-GlnR*3-Ala-NH2 [I-1743] | < 50 |
| Ac-PL3-Asp-Npg-B5-Asp-3COOHF-Aib-Ala-Phe-Lys*3-PyrS2-[5pymCO]2NH2F-BztA-GlnR*3-Ala-NH2 [I-1756] | < 50 |
| Ac-PL3-Asp-Npg-B5-Asp-3COOHF-Aib-Ala-Phe-Lys*3-PyrS2-[6QuiAc]2NH2F-BztA-GlnR*3-Ala-NH2 [I-1739] | < 50 |
| Ac-PL3-Asp-Npg-B5-Asp-3COOHF-Aib-Ala-Phe-Lys*3-PyrS2-[124TriAc]2NH2F-BztA-GlnR*3-Ala-NH2 [I-1737] | < 50 |

| Substance | IC50 [nM] |
| --- | --- |
| Ac-PL3-Asp-Npg-B5-Asp-3COOHF-Aib-Ala-Phe-Lys*3-PyrS2-[124TriPr]2NH2F-BztA-GlnR*3-Ala-NH2 [I-1738] | < 50 |
| Ac-PL3-Asp-Npg-B5-Asp-3COOHF-Aib-Ala-Phe-Lys*3-PyrS2-[BiPh]2NH2F-BztA-GlnR*3-Ala-NH2 [I-1664] | < 50 |
| Ac-PL3-Asp-Npg-B5-Asp-3COOHF-Aib-Ala-Phe-Lys*3-PyrS2-[BiPh]2NH2F-BztA-GlnR*3-Ala-NH2 [I-1665] | 50 to 200 |
| Ac-PL3-Asp-Npg-B5-Asp-3COOHF-Aib-Ala-Phe-Lys*3-PyrS2-[Bnc]2NH2F-BztA-GlnR*3-Ala-NH2 [I-1660] | < 50 |
| Ac-PL3-Asp-Npg-B5-Asp-3COOHF-Aib-Ala-Phe-Lys*3-PyrS2-[Bnc]2NH2F-BztA-GlnR*3-Ala-NH2 [I-1661] | 200 to 750 |
| Ac-PL3-Asp-Npg-B5-Asp-3COOHF-Aib-Ala-Phe-Lys*3-PyrS2-[Me2MeOPr]2NH2F-BztA-GlnR*3-Ala-NH2 [I-1746] | 750 to 1000 |
| Ac-PL3-Asp-Npg-B5-Asp-3COOHF-Aib-Ala-Phe-Lys*3-PyrS2-[Me2NAc]2NH2F-BztA-GlnR*3-Ala-NH2 [I-1747] | < 50 |
| Ac-PL3-Asp-Npg-B5-Asp-3COOHF-Aib-Ala-Phe-Lys*3-PyrS2-[Me2NAc]2NH2F-BztA-GlnR*3-Ala-NH2 [I-1748] | 200 to 750 |
| Ac-PL3-Asp-Npg-B5-Asp-3COOHF-Aib-Ala-Phe-Lys*3-PyrS2-[Me2NPr]2NH2F-BztA-GlnR*3-Ala-NH2 [I-1749] | < 50 |
| Ac-PL3-Asp-Npg-B5-Asp-3COOHF-Aib-Ala-Phe-Lys*3-PyrS2-[MeOPr]2NH2F-BztA-GlnR*3-Ala-NH2 [I-1744] | 200 to 750 |
| Ac-PL3-Asp-Npg-B5-Asp-3COOHF-Aib-Ala-Phe-Lys*3-PyrS2-[MePipAc]2NH2F-BztA-GlnR*3-Ala-NH2 [I-1666] | < 50 |
| Ac-PL3-Asp-Npg-B5-Asp-3COOHF-Aib-Ala-Phe-Lys*3-PyrS2-[MorphAc]2NH2F-BztA-GlnR*3-Ala-NH2 [I-1753] | < 50 |
| Ac-PL3-Asp-Npg-B5-Asp-3COOHF-Aib-Ala-Phe-Lys*3-PyrS2-[NdiMeButC]2NH2F-BztA-GlnR*3-Ala-NH2 [I-1750] | 50 to 200 |
| Ac-PL3-Asp-Npg-B5-Asp-3COOHF-Aib-Ala-Phe-Lys*3-PyrS2-[Nic]2NH2F-BztA-GlnR*3-Ala-NH2 [I-1754] | < 50 |
| Ac-PL3-Asp-Npg-B5-Asp-3COOHF-Aib-Ala-Phe-Lys*3-PyrS2-[PhOPr]2NH2F-BztA-GlnR*3-Ala-NH2 [I-1745] | 50 to 200 |
| Ac-PL3-Asp-Npg-B5-Asp-3COOHF-Aib-Ala-Phe-Lys*3-PyrS2-[Phc]2NH2F-BztA-GlnR*3-Ala- [I-1663] | 750 to 1000 |
| Ac-PL3-Asp-Npg-B5-Asp-3COOHF-Aib-Ala-Phe-Lys*3-PyrS2-[Phc]2NH2F-BztA-GlnR*3-Ala-NH2 [I-1662] | 50 to 200 |
| Ac-PL3-Asp-Npg-B5-Asp-3COOHF-Aib-Ala-Phe-Lys*3-PyrS2-c6Phe-BztA-GlnR*3-Ala-NH2 [I-1161] | 50 to 200 |
| Ac-PL3-Asp-Npg-B5-Asp-3COOHF-Aib-Ala-Phe-Lys*3-PyrS2-hCbA-34ClF-GlnR*3-Ala-NH2 [I-1320] | < 50 |
| Ac-PL3-Asp-Npg-B5-Asp-3COOHF-Aib-Ala-Phe-Lys*3-PyrS2-hCbA-34ClF-GlnR*3-Val-Glu-Ala-NH2 [I-1348] | < 50 |
